# Results: PubChem BioAssay (Tox21)
# Values joined by “and” are separate entries in the source; they are usually repeats but may differ in a detail not shown here. Identical values can stand only once. The entries are a selection whose mix differs from that of the whole data set. Inconclusive results are not listed. Active and inactive are the calls of the source. Calls come from the whole dose curve; as a rule, active = well fitted activation curve with a large enough effect in the signal ratio in the repeat runs (not every such curve was filed as active); inconclusive = weak or mixed curves; inactive = flat fitted curve, though single readings scatter; the % refers to the signal ratio.
# Test: qHTS assay to identify small molecule agonists of the hypoxia (HIF-1) signaling pathway (AID 1224846)
# Conditions: HRE-bla ME-180 cells, beta-lactamase ratio, 17 h; at 35.5 µM (top of the series)
# Excerpt: U.S. Tox21 Program National Center for Advancing Translational Sciences [NCATS] NIH Chemical Genomics Center [NCGC] U.S. Environmental Protection Agency [EPA] National Institutes of Environmental Health Sciences [NIEHS] National Toxicology Program [NTP] U.S. Food and Drug Administration [FDA] Tox21 Assay Overview: Hypoxia-inducible factor-1 (HIF-1) is the major hypoxia-regulated transcription factor that controls cellular responses to low oxygen concentration. HIF-1 is composed of two subunits: hypoxia responsive HIF-1-alpha and constitutively expressed HIF-1-beta, which is also known as aryl hydrocarbon receptor nuclear translocator. During hypoxic conditions, HIF-1-alpha heterodimerizes with HIF-1-beta and translocates into the nucleus where the HIF-1 complex binds to the hypoxia-response element (HRE) and activates expression of target genes such as VEGF (vascular endothelial growth factor). The HIF-1 pathway is essential to normal growth and development, and is involved in the pathophysiology of cancer, inflammation, and ischemia. Using a beta-lactamase reporter-gene under control of the hypoxia response element, a cell-based assay [CellSensor(TM) HRE-bla ME-180 from Life Technologies, Carlsbad, CA] was used to measure hypoxia-induced signaling. Tox21 10K library compounds were measured for their ability to induce the reporter gene activity.
# Tox21 Assay Protocol Summary: HRE-bla ME-180 cells were dispensed at 2,000 cells per well in 6 uL of assay medium containing 0.5% dialyzed FBS into black wall/clear-bottom 1536-well plates using a Multidrop Combi (Thermo Scientific, Waltham, MA) dispenser. After the assay plates were incubated at 37C and 5% CO2 for 5 hrs, 23 nL of compounds dissolved in DMSO, positive controls or DMSO only was transferred to each well of the assay plate using a Pintool station (Kalypsys, San Diego, CA). The assay plates were incubated at 37C and 5% CO2 for 17 hrs. One uL of LiveBLAzerTM B/G FRET substrate (CCF4-AM) (Life Technologies) was added to each well using a Flying Reagent Dispenser (Aurora Discovery, San Diego, CA).
# % is set by controls: 0 for no effect and ±100 for the full control effect.
row,SMILES,activation
1,Cc1cccc([N+](=O)[O-])c1[N+](=O)[O-],inactive: -1.11%
2,OCCSCCO,inactive: -0.645%

# Same assay, conditions: HRE-bla ME-180 cells, beta-lactamase ratio, 17 h; at 76.8 µM (top of the series)
row,SMILES,activation
1,N=C(N)N[N+](=O)[O-],inactive: 0.72%
2,CP(=O)(O)OCCC[Si](O)(O)O,inactive: -1.3%
3,Nc1cc([N+](=O)[O-])cc([N+](=O)[O-])c1O,inactive: -0.248%
4,N#CBr,inactive: 0%
5,CN(C)CCCl,inactive: -0.564%
6,CC(C)N(CCO)C(C)C,inactive: -0.735%
7,Cc1ccc([N+](=O)[O-])cc1[N+](=O)[O-],inactive: -1.1% and inactive: -1.05%
8,COc1ccc([N+](=O)[O-])cc1[N+](=O)[O-],inactive: 0.628%
9,COP(C)(=O)OC,inactive: 0.521% and inactive: -2.16%
10,[NH4+].[O-][Cl+3]([O-])([O-])[O-],inactive: -0.0415% and inactive: -0.822%
11,O=[N+]([O-])[O-].[NH4+],inactive: -0.75% and inactive: -1.8%
12,CC(C)OP(C)(=O)OC(C)C,inactive: -0.56% and inactive: -0.818%
13,OCCSCCO,inactive: -0.127%
14,Cc1c([N+](=O)[O-])cccc1[N+](=O)[O-],inactive: 0.374% and inactive: -0.938%
15,O=[N+]([O-])OCC(CO[N+](=O)[O-])(CO[N+](=O)[O-])CO[N+](=O)[O-],inactive: 0.0793%
16,CCOP(=O)(CC)OCC,inactive: -0.549%
17,CCN(CC)CCCl,inactive: -0.323%
